Experimental data taken from patent US9410137B2, “Compositions and methods for modulating hemostasis” (The Children's Hospital of Philadelphia, priority 2005, dated 2016).
Read-outs that look alike come from different tables or passages of the source.

Columns and labels:
[1] = FXa chromogenic activity of rFX variants after activation with TF-FVIIa; format: biochemical; settings: for FXa Activity: activation of FX with TF-FVIIa, compared to FXa standard curve; for % wt (FXa activity): activation with TF-FVIIa, adjusted for antigen levels
Experimental: (§1) The FX mutants were generated using the Quick-change site-directed mutagenesis kit (Stratagene) and the entire FX cDNA was sequenced to verify the identity of the product. The various plasmids were transiently transfected into HEK 293 cells using Lipofectamine-2000. 48 hr post-transfection, media was collected and FX antigen levels were determine using a FX-specific ELISA and FXa activity was assessed by chromogenic assay prior to activation by RVV-X or by tissue factor-FVIIa.

[2] = FXa chromogenic activity of rFX variants after activation with RVV-X; format: biochemical; settings: for FXa Activity: activation of FX with RVV-X, compared to FXa standard curve; for % wt (FXa activity): activation with RVV-X, adjusted for antigen levels
Experimental: as §1

prothrombin = prothrombin (Homo sapiens, UniProt P00734); experiment: Kinetic constants for prothrombin cleavage by prothrombinase; format: biochemical; settings: for Km: read-out: Km ± SD
[3] = Kinetic studies using peptidyl substrates and active site directed probes; format: biochemical; settings: free FXa
From the text: (§2) Enzyme concentrations will be determined by active-site titration with ρ-nitrophenyl ρ-guanidinobenzoate (IIa) or fluorescein mono-ρ-guanidinobenzoate (FXa) (26, 27). FXa chromogenic substrate activity, in the presence or absence of various inhibitors, will be measured from initial rates of hydrolysis of Spectrozyme FXa, S-2222, or S-2765 as previously described (14). Kinetic parameters will be determined by least-squares fitting of the initial rate data to appropriate equations.
We first focused on assessing changes to the active site environment of each of the variants using specific probes that target this region of FXa.

[4] = Kinetic constants for chromogenic substrate cleavage (free factor Xa or prothrombinase); format: biochemical; settings: for Km: read-out: Km ± SD; for Km for peptidyl substrates / kcat reduced: assembled into prothrombinase; for kcat reduced: compared to wild-type FXa
From the text: as §2

FVa = target: T1, FVa (Homo sapiens, UniProt P12259); experiment: Equilibrium binding for prothrombinase assembly (displacement of fluorescent inactive wtFXa from FVa-membranes); settings: for Kd: FVa, synthetic phospholipid vesicles, Ca2+, read-out: Kd ± SD; for affinity for FVa: FVa-membranes, competition with fluorescent inactive wtFXa
T1 sequence (P12259 29-737 limits assumed): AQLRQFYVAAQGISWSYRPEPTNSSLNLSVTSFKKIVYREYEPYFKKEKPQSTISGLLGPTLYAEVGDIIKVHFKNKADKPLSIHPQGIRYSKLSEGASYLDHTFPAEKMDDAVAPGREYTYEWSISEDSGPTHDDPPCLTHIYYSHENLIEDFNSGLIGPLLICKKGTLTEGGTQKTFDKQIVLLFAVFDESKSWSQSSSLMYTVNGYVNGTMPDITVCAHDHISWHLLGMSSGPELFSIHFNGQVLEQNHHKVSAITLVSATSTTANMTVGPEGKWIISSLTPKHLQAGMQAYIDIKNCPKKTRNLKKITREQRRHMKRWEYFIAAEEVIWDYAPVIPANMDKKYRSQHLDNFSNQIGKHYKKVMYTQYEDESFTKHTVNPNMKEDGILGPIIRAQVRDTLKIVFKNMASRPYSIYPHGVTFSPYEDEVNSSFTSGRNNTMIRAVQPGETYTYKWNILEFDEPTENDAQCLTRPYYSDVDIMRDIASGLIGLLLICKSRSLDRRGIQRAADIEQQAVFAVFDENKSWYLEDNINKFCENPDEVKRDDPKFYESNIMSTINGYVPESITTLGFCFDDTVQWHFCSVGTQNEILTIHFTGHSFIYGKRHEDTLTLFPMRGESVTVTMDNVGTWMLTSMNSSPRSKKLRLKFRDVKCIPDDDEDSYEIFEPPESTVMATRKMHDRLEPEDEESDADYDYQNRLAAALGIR
T1 sequence (P12259 1574-2224 limits assumed): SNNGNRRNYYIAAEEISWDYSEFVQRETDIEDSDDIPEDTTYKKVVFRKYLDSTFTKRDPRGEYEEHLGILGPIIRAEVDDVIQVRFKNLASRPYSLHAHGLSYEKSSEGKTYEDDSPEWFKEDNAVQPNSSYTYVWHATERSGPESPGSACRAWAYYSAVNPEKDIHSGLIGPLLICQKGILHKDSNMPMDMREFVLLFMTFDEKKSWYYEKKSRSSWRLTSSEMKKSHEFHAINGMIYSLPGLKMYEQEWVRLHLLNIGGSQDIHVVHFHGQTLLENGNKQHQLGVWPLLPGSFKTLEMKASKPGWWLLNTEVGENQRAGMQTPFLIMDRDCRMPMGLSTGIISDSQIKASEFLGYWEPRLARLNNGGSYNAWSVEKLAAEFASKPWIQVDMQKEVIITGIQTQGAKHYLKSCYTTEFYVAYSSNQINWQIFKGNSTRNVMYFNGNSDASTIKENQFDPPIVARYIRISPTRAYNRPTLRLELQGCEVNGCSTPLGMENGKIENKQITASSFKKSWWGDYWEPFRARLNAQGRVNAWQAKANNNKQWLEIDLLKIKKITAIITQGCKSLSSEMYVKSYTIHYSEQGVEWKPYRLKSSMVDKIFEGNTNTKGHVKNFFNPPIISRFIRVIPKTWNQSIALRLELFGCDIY

[5] = Inhibition of FXa and prothrombinase by Pefabloc tPa/Xa; format: biochemical; settings: for Ki: read-out: Ki ± SD Pefabloc tPa/Xa
From the text: as §2

[6] = Inhibition of FXa and prothrombinase by para-amino benzamidine; format: biochemical; settings: for Ki: read-out: Ki ± SD Para-amino benzamidine
From the text: as §2

Antithrombin III = Antithrombin III (Homo sapiens, UniProt P01008); experiment: Inhibition of FXa and prothrombinase by Antithrombin III; format: biochemical
From the text: as §2

hemophilia B plasma = experiment: aPTT clotting time of hemophilia B plasma spiked with FXa; format: biochemical; settings: 0.1 nM in hemophilia B plasma
Experimental: Based on the observation that the zymogen-like FXa derivatives have poor reactivity with active-site directed probes and inhibitors in the absence of FVa, but apparently near normal activity when the variants are assembled in prothrombinase, we next evaluated the activity of FXaI16L (FXaI235L) in a plasma environment. Hemophilic A (data not shown) or B plasma was spiked with wild-type FXa to correct the clotting time (aPTT) of these plasmas; 0.1 nM wtFXa gave a clotting time of ˜32 sec. […] Next we monitored the half-life of wild-type FXa and FXaI16L (FXaI235L) in hemophilia B plasma. The proteins were added to HB plasma and at different time points, an aliquot of the mixture was withdrawn and assayed in an aPTT-based assay. […] Similar results were found with hemophilia A plasma.

[7] = Prothrombinase, 5.0 nM FXa, 30 nM factor Va, 50 μM PCPS
[8] = free Factor Xa, 2.0 nM wild-type or 6.0 nM mutant

With “Asp194→Asn: rFX variant, Asp194 (position 418 in SEQ ID NO: 1) replaced by Asn” the “FXa Activity” value [1] was 0.000 nM, the “% wt (FXa activity)” value [1] was 0.00% and the “FXa Activity” value [2] was 0.03 nM. The “% wt (FXa activity)” value [2] was 0.79%.
For “Asp194→Qu: rFX variant, Asp194 (position 418 in SEQ ID NO: 1) replaced, probably by Glu”, the “FXa Activity” value [1] was 0.000 nM, the “% wt (FXa activity)” value [1] was 0.00% and the “FXa Activity” value [2] was 0.02 nM. The “% wt (FXa activity)” value [2] was 0.27%.
With “Ile16→Asp: rFX variant, Ile16 (position 235 in SEQ ID NO: 1) replaced by Asp” the “FXa Activity” value [1] was 0.000 nM, the “% wt (FXa activity)” value [1] was 0.00% and the “FXa Activity” value [2] was 0.01 nM. The “% wt (FXa activity)” value [2] was 0.22%.
In the case of “Ile16→Phe: rFX variant, Ile16 (position 235 in SEQ ID NO: 1) replaced by Phe”, the “FXa Activity” value [1] is reported as 0.004 nM, the “% wt (FXa activity)” value [1] is reported as 0.02% and the “FXa Activity” value [2] is reported as 0.01 nM. The “% wt (FXa activity)” value [2] was 0.08%.
For “Val17→Gly: rFX variant, Val17 (position 236 in SEQ ID NO: 1) replaced by Gly”, the “FXa Activity” value [1] was 0.036 nM, the “% wt (FXa activity)” value [1] was 0.22% and the “FXa Activity” value [2] was 0.02 nM. For the same substance, the “% wt (FXa activity)” value [2] was 0.21%.
With “Val17→Leu: rFX variant, Val17 (position 236 in SEQ ID NO: 1) replaced by Leu” the “FXa Activity” value [1] was 3.003 nM, the “% wt (FXa activity)” value [1] was 30.48% and the “FXa Activity” value [2] was 1.22 nM. The “% wt (FXa activity)” value [2] was 21.33%.
In the case of “pdFXa: plasma-derived wild-type FXa [reference compound]”, the “Vmax/Et ± SD” value (prothrombin) is reported as 2424 ± 54 nM IIa/min/nM E, the “Vmax/Et · Km” value (prothrombin) is reported as 96 µM⁻¹ s⁻¹ and the Km (prothrombin) is reported as 420 ± 20 nM.
In the case of “rFXa^I16G: factor X/Xa variant, Ile16 (position 235 in SEQ ID NO: 1) replaced by Gly”, the “FXa Activity” value [1] is reported as 0.037 nM, the “% wt (FXa activity)” value [1] is reported as 0.38% and the “FXa Activity” value [2] is reported as 0.00 nM. For the same substance, the “% wt (FXa activity)” value [2] was 0.05%, the “inhibition by active site directed probes” value [3] was “not inhibited by any of the probes examined” and the “fold change of kcat versus rwtFXa” value ([4]; Prothrombinase) was 60X. For the same substance, the “kcat ± SD” value [4, 7] was 1.92 ± 0.05 s⁻¹, the Km [4, 7] was 433 ± 31 µM and the “Km increased compared to wild-type FXa” value ([4]; assembled in prothrombinase) was 3 fold. For the same substance, the “Km for peptidyl substrates” value [4] was “almost completely restored”, the kcat reduced [4] was 60 fold and the chromogenic activity impaired ([4]; free FXa) was 500 to 1000 fold. For the same substance, the “kcat ± SD” value ([4]; free Factor Xa) was 0.28 ± 0.05 s⁻¹ and the Km [4, 8] was 1610 ± 423 µM.
For “rFXa^S195A: inactive FXa mutant missing the Ser of the catalytic triad, high affinity for FVa; control competitor [reference compound]”, the Kd (FVa) was 1.34 ± 0.17 nM and the “affinity for FVa” value (FVa) was “high affinity for FVa”.
In the case of “rFXa^V17A: factor X/Xa variant, Val17 (position 236 in SEQ ID NO: 1) replaced by Ala”, the “fold change of Ki Pefabloc tPa/Xa versus rwtFXa” value ([5]; Prothrombinase) is reported as 5X, the Ki ([5]; Prothrombinase) is reported as 295 ± 13 nM and the “fold change of Ki Pefabloc tPa/Xa versus rwtFXa” value ([5]; free Factor Xa) is reported as 25X. For the same substance, the Ki ([5]; free Factor Xa) was 1700 ± 72 nM, the “Vmax/Et ± SD” value (prothrombin) was 887 ± 26 nM IIa/min/nM E and the “Vmax/Et · Km” value (prothrombin) was 31 µM⁻¹ s⁻¹. The Km (prothrombin) was 470 ± 30 nM, the “fold change of Ki para-amino benzamidine versus rwtFXa” value ([6]; Prothrombinase) was 3X and the Ki ([6]; Prothrombinase) was 191 ± 6.4 µM. The “fold change of Ki para-amino benzamidine versus rwtFXa” value ([6]; free Factor Xa) was 11X, the Ki ([6]; free Factor Xa) was 996 ± 37 µM and the “FXa Activity” value [1] was 1.029 nM. The “% wt (FXa activity)” value [1] was 5.27%, the “FXa Activity” value [2] was 0.34 nM and the “% wt (FXa activity)” value [2] was 3.02%. For the same substance, the “fold change of k2 Antithrombin III versus rwtFXa” value (Antithrombin III; Prothrombinase) was 4X, the “k2 ± SD Antithrombin III” value (Antithrombin III; Prothrombinase) was 0.05 ± 0.001 M^−1 s^−1 × 10^3 and the “fold change of k2 Antithrombin III versus rwtFXa” value (Antithrombin III; free Factor Xa) was 19X. For the same substance, the “k2 ± SD Antithrombin III” value (Antithrombin III; free Factor Xa) was 0.09 ± 0.003 M^−1 s^−1 × 10^3, the Kd (FVa) was 7.25 ± 0.65 nM and the “affinity for FVa” value (FVa) was “significantly reduced compared to FXaS195A”. For the same substance, the “fold change of Km versus rwtFXa” value ([4]; Prothrombinase) was 3X, the “fold change of kcat versus rwtFXa” value ([4]; Prothrombinase) was 3X and the “kcat ± SD” value [4, 7] was 68.2 ± 9.7 s⁻¹. The Km [4, 7] was 362 ± 42 µM, the “Km for peptidyl substrates” value [4] was “almost completely restored” and the kcat reduced [4] was 3 fold. For the same substance, the “rate of catalysis (kcat) reduced” value ([4]; free FXa, compared to wild-type FXa (plasma-derived and recombinant)) was 3 fold, the “fold change of Km versus rwtFXa” value ([4]; free Factor Xa) was 15X and the “fold change of kcat versus rwtFXa” value ([4]; free Factor Xa) was 3X. For the same substance, the “kcat ± SD” value ([4]; free Factor Xa) was 71.6 ± 13.5 s⁻¹ and the Km [4, 8] was 1380 ± 332 µM.
In the case of “rwtFXa: recombinant wild-type factor X (zymogen) / factor Xa after activation [reference compound]”, the “clotting time (aPTT)” value (hemophilia B plasma) is reported as about 32 s, the Ki ([5]; Prothrombinase) is reported as 50 ± 2 nM and the Ki ([5]; free Factor Xa) is reported as 70 ± 2 nM. The Ki ([6]; Prothrombinase) was 48.6 ± 0.6 µM, the Ki ([6]; free Factor Xa) was 78.1 ± 1.5 µM and the “FXa Activity” value [1] was 18.905 nM. The “% wt (FXa activity)” value [1] was 100.00%, the “FXa Activity” value [2] was 10.95 nM and the “% wt (FXa activity)” value [2] was 100.00%. The “k2 ± SD Antithrombin III” value (Antithrombin III; Prothrombinase) was 0.28 ± 0.01 M^−1 s^−1 × 10^3, the “k2 ± SD Antithrombin III” value (Antithrombin III; free Factor Xa) was 1.37 ± 0.02 M^−1 s^−1 × 10^3 and the “kcat ± SD” value [4, 7] was 141 ± 3.7 s⁻¹. For the same substance, the Km [4, 7] was 130 ± 11 µM, the “kcat ± SD” value ([4]; free Factor Xa) was 215 ± 13.5 s⁻¹ and the Km [4, 8] was 88.8 ± 11.4 µM.
